Measurements from ChEMBL document CHEMBL1155951, “Design, synthesis, and biological activities of conformationally restricted analogs of primaquine with a 1,10-phenanthroline framework” (Bioorg Med Chem Lett, 2008).
pIC50: −log10 of the molar value.

Tests used:
[1] = Selectivity index, ratio of IC50 for african green monkey (Cercopithecus aethiops) Vero cells to IC50 for chloroquine-resistant Plasmodium falciparum FcM29; type: toxicity, cell-based; conditions: read-out: Ratio IC50
Plasmodium falciparum [2] = assay: Antiplasmodial activity against chloroquine-resistant Plasmodium falciparum FcB1 after 48 hrs by [3H]hypoxanthine uptake; type: functional, organism-based; conditions: FcB1/Columbia
Plasmodium falciparum [3] = assay: Antiplasmodial activity against chloroquine-resistant Plasmodium falciparum W2 after 48 hrs by [3H]hypoxanthine uptake; type: functional, organism-based
Plasmodium falciparum [4] = assay: Antiplasmodial activity against chloroquine-resistant Plasmodium falciparum W2 gametocytes after 48 hrs by microscopy; type: functional, organism-based; conditions: W2, 48 h
[5] = Selectivity index, ratio of IC50 for african green monkey (Cercopithecus aethiops) Vero cells to IC50 for chloroquine-resistant Plasmodium falciparum FcB1; type: toxicity, cell-based; conditions: read-out: Ratio IC50
Plasmodium falciparum [6] = assay: Antiplasmodial activity against chloroquine-sensitive Plasmodium falciparum F32 after 48 hrs by [3H]hypoxanthine uptake; type: functional, organism-based
[7] = Selectivity index, ratio of IC50 for african green monkey (Cercopithecus aethiops) Vero cells to IC50 for chloroquine-resistant Plasmodium falciparum W2; type: toxicity, cell-based; conditions: read-out: Ratio IC50
Plasmodium falciparum [8] = assay: Antiplasmodial activity against chloroquine-resistant Plasmodium falciparum FcM29 after 48 hrs by [3H]hypoxanthine uptake; type: functional, organism-based
[9] = Selectivity index, ratio of IC50 for african green monkey (Cercopithecus aethiops) Vero cells to IC50 for chloroquine-sensitive Plasmodium falciparum F32; type: toxicity, cell-based; conditions: read-out: Ratio IC50

## COc1cc(NC(C)CCCN)c2ncccc2c1 (centres undefined) [PRIMAQUINE]
[1]
  selectivity ratio: 47
Plasmodium falciparum [2]
  pIC50: 5.16
Plasmodium falciparum [3]
  pIC50: 5.11
Plasmodium falciparum [4]
  pIC50: 5.02
[5]
  selectivity ratio: 49
Plasmodium falciparum [6]
  pIC50: 5.17
[7]
  selectivity ratio: 44
Plasmodium falciparum [8]
  pIC50: 5.14
[9]
  selectivity ratio: 49
